Source: PubChem BioAssay AID1479 (National Center for Advancing Translational Sciences (NCATS), 2009)
Among all 280,000 compounds or so, about 820 (0.29%) were called active. The source calls these results inconclusive, neither active nor inactive. Calls follow the shape of the dose curve; as a rule, active = well fitted curve in either direction with a large enough effect; inconclusive = small, poorly fitted or top-dose-only effect; inactive = flat fitted curve, though single readings scatter.

Assay: Total Fluorescence Counterscreen for Inhibitors of the Interaction of Thyroid Hormone Receptor and Steroid Receptor Coregulator 2
Details: TRb/SRC2 Texas Red total fluorescence interference
Potency is read from the fitted curve at half-maximal effect.

Q: With `CN(C(=O)Cc1ccccc1)[C@@H]1CC[C@]2(CCCO2)C[C@H]1N1CCCC1` as the compound, how does the Potency read?
A: inconclusive: 3.55 µM
